{"source": "paper PMC3479967", "about": "“Drug-Drug Interactions Potential of Icariin and Its Intestinal Metabolites via Inhibition of Intestinal UDP-Glucuronosyltransferases” (Evidence-based Complementary and Alternative Medicine : eCAM, 2012)", "key": {"[1]": {"test": "Calculation of possible maximum concentrations in blood", "parameters": "species or system human", "conditions": "calculated, after a single oral administration of Epimedium pubescens decoction"}, "[2]": {"test": "Calculation of possible maximum concentrations in gut lumen", "parameters": "species or system human", "conditions": "calculated, after a single oral administration of Epimedium pubescens decoction", "procedure": "Since the concentrations of icariin in human gut lumen are not available, the values were calculated based on physiological parameters of human and the dosage of a single oral administration of a Chinese traditional decoction of Epimedium pubescens in human volunteers. […] The reported V L was 1.65 L/70 kg. […] The concentrations of icariin intestinal metabolites in human gut lumen are not available, but it has been reported that about 70% icariin will be transformed into its intestinal metabolites in the intestinal lumen. […] Here we arbitrarily assumed the ratio in rat equaled to that in human blood, and the values of their oral bioavailability were consistent."}, "UGT1A7": {"biological_target": "T1, UGT1A7 (Homo sapiens, UniProt Q9HAW7)", "T1 sequence (Q9HAW7 26-530)": "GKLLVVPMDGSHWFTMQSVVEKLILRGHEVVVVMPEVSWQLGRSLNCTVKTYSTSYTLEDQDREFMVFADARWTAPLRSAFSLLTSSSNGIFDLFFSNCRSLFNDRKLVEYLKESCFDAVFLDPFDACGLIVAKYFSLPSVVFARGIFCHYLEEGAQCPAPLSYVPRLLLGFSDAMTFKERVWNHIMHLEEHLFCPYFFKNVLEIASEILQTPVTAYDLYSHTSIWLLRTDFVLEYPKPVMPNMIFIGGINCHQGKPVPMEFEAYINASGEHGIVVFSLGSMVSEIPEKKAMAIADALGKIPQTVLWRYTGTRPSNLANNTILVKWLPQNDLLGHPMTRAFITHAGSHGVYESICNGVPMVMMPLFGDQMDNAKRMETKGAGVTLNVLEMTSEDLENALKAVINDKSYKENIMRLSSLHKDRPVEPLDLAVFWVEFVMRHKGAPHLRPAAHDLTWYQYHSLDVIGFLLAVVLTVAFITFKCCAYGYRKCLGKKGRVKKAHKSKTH", "test": "Inhibition of recombinant UGT1A7 activity (4-MU glucuronidation)", "procedure": "(§1) A panel of recombinant human UGT supersomes (UGT1A1, UGT1A3, UGT1A4, UGT1A6, UGT1A7, UGT1A8, UGT1A9, UGT1A10, UGT2B4, UGT2B7, UGT2B15, and UGT2B17) expressed in baculovirus-infected insect cells were purchased from BD Gentest Corp. (Woburn, MA, USA).\n(§2) 4-MU, a nonselective substrate of UGTs, was used as probe substrate for all UGTs except UGT1A4. Incubations with each individual enzyme were conducted using conditions previously described. There was a 5 min preincubation step at 37°C before the reaction was started by addition of UDPGA. The incubation mixtures were then centrifuged at 20,500 ×g for 15 min to obtain the supernatant. Aliquots (20 μL) were then analyzed by HPLC. The HPLC system (SHIMADZU, Kyoto, Japan) consisted of an SCL-10A system controller, two LC-10AT pumps, a SIL-10A auto injector, and a SPD-10AVP UV detector. Chromatographic separation was achieved using a Kromasil ODS column (4.6 × 150 mm I.D., 5 μm particle size) at a flow rate of 1 mL/min and UV detection at 316 nm. The mobile phase consisted of 10 mM KH2PO4, pH 2.7 (A) and acetonitrile (B). […]\n(§3) Inhibition data from experiments were graphically represented by Dixon plots. K i values were calculated by nonlinear regression using the equations for competitive inhibition (1), noncompetitive inhibition (2), or mixed inhibition (3), [22] […]"}, "UGT1A9": {"biological_target": "T2, UGT1A9 (Homo sapiens, UniProt O60656)", "T2 sequence (O60656 26-530)": "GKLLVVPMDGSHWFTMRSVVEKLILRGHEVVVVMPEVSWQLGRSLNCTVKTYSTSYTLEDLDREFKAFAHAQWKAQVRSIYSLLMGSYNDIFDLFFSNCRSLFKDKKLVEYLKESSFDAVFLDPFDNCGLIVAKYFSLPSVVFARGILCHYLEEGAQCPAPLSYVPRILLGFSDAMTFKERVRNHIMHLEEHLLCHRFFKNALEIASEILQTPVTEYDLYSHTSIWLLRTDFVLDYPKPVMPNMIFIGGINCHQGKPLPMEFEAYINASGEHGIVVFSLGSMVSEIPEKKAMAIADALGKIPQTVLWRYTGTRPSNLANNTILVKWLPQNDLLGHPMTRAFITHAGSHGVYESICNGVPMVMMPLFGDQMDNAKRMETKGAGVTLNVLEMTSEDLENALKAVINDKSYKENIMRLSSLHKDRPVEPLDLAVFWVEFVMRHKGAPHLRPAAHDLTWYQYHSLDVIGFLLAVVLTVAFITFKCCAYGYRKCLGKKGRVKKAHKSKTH", "test": "Inhibition of recombinant UGT1A9 activity (4-MU glucuronidation)", "conditions": "read-out: IC50 for inhibition of UGT1A9 activity; recombinant human UGT1A9, 30 μM 4-MU, mean ± SD", "procedure": "as §1, §2, §3"}}}
{"substance": "Icariside II", "values": [{"measurement": "Possible maximum concentration in human blood", "setting": "[1]", "result": "~1.5", "unit": "nM"}, {"measurement": "Possible maximum concentration in human gut lumen", "setting": "[2]", "result": "~3.7", "unit": "µM"}, {"measurement": "IC50", "setting": "UGT1A7; read-out: IC50 for inhibition of UGT1A7 activity, recombinant human UGT1A7, 15 μM 4-MU, mean ± SD", "result": "2800 ± 100", "unit": "nM"}, {"measurement": "Ki", "setting": "UGT1A7; read-out: Ki against UGT1A7, recombinant UGT1A7, 4-MU substrate, mean ± standard error", "result": "6200 ± 500", "unit": "nM"}, {"measurement": "IC50", "setting": "UGT1A9", "result": "2400 ± 100", "unit": "nM"}]}
